## Antibody variant affinities, Ab-95 light chain, assay 2

The target is the same throughout: PDVDLGDISGINAS, from the HR2 region of SARS-CoV-2 spike.

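The starting antibody came from a phage panning campaign against this peptide. AAYL52 was designed without a model: most single CDR substitutions and a random sample of double and triple ones. AlphaSeq pools MATa yeast showing the antibodies with MATalpha yeast showing the peptide. Mating (16 h, 30 °C) was followed by selection of diploids and sequencing of their barcodes. A regression on co-assayed BCL2-family reference pairs converts the normalised counts of each replicate to an apparent Kd. Mating was done three times.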

Ab-95 is the parent antibody, in scFv form: VH, then the linker GGGGSGGGGSGGGGS, then VL. The heavy chain is unchanged in all variants.
VH: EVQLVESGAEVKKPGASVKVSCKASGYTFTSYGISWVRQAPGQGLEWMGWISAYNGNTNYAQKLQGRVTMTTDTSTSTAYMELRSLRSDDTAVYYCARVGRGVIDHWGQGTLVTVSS
VL: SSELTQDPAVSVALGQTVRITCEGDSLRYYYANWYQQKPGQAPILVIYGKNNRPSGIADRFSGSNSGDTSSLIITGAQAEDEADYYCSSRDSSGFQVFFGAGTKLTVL

Each variant is given by its three light chain CDRs, as the data file delimits them; those of the parent are EGDSLRYYYAN, GKNNRPS, SSRDSSGFQVF.
Scale: log10 of Kd in nM, estimated from mating counts; low values are strong binders.
Where no diploid with the target was found in that replicate, the entry reads "ND": below detection, most likely a poor binder, though not proof of it.

CDR-L1 | CDR-L2 | CDR-L3 | log10 Kd (nM) by replicate | empty controls
EHDSTRYYYAN | GKNVRPS | SSRDSSGFQVF | 3.35 / 2.50 / 3.11 | 2 of 9 (4.83)
EGDSLRYYYAN | GKNNDPS | SSRDSSGFQVF | ND / ND / 3.21 | 2 of 9 (4.05)
EGDSLRYYYAN | NKNNGPS | SSADSSGFQVF | ND / ND / ND | 4 of 9 (3.30)
EGDFLRYYYAN | GNNNRPS | SSRDSSAFQVF | 3.34 / 3.39 / 4.37 | 2 of 9 (3.37)
EGDVLRYYYAN | GKNNRHS | TSRDSSGFQVF | 4.46 / ND / 3.74 | 2 of 9 (5.21)
EGDSLRYYYAN | GKNNRPS | HSRDSPGFQVQ | 3.42 / 2.78 / 3.89 | 4 of 9 (4.40)
ESDSLRYYYAN | GKNNRPS | SSEDSSGFQVG | ND / ND / ND | 4 of 9 (4.05)
EGKSLRYYYAN | GKNNRPS | SSQDSSGFPVF | 2.55 / 2.70 / 2.86 | 5 of 9 (3.83)
EGDSLRYYYAN | DKNNRPS | SMRDSSGFQVI | 3.24 / 3.13 / 2.52 | 0 of 9
GGDSLRYYNAN | GKNDRPS | SSRDSSGFQVF | 1.14 / 0.94 / 0.65 | 4 of 9 (4.30)
EGDSLTYYVAN | GKNNRPS | SSRDSSGFQQF | ND / 3.12 / ND | 0 of 9
EGDSLRYYYAR | GKNNRPS | SSRDSNGFQVR | 3.91 / ND / 3.91 | 1 of 9 (4.31)
EGDSLRYYYAN | GKWNRPS | SSRDSTGFQVS | ND / 3.58 / ND | 2 of 9 (3.54)
ESDSLGYYYAN | GKNNRPS | NSRDSSGFQVF | 3.19 / 2.95 / 3.76 | 3 of 9 (4.06)
EGDSLRYYYAN | GKNNFDS | SERDSSGFQVF | ND / ND / ND | 1 of 9 (3.10)
EGDSKRYYYRN | GKNNRPS | QSRDSSGFQVF | ND / 4.32 / ND | 2 of 9 (3.28)
EGDSLRYYYLN | GKNIAPS | SSRDSSGFQVF | ND / ND / ND | 2 of 9 (3.83)
EGDSLRGYYAN | GRNYRPS | SSRDSSGFQVF | 2.05 / 1.47 / 1.43 | 3 of 9 (4.13)
EGKSLRYYYAN | GKNVRPS | SSRDSSLFQVF | 3.58 / 4.79 / ND | 2 of 9 (3.24)
EGDSLRYYNAN | AKNHRPS | SSRDSSGFQVF | 2.58 / 2.63 / 3.26 | 2 of 9 (3.83)
EGDSLRYYTAN | VHNNRPS | SSRDSSGFQVF | ND / 5.21 / ND | 3 of 9 (3.23)
EGDSLRYYKAN | GKNDRPS | SSRDSSGFQVF | 1.66 / 1.64 / 1.20 | 4 of 9 (3.68)
EGDSLRYYYAN | GKNNRPS | HSRKLSGFQVF | ND / 5.54 / ND | 1 of 9 (2.84)
EVDSLRYYYAN | GKNNRPS | SSRDSSGCQVV | 4.44 / ND / ND | 3 of 9 (4.23)
EGDSLRAYHAN | GKNNRPS | SSRDSSGIQVF | 4.59 / 4.16 / 2.06 | 0 of 9
EGDSLRYYYAN | GINNRPS | SIRDSSGSQVF | 3.75 / ND / ND | 2 of 9 (3.84)
EGDSLFFYYAN | GKNNRPS | SSRDSSGFQVY | ND / ND / ND | 1 of 9 (4.10)
EGDSLRYYYAC | GKNYRPE | SSRDSSGFQVF | 4.37 / ND / ND | 4 of 9 (4.17)
EGDSLREYYAN | GKRNRPS | SSLDSSGFQVF | 4.14 / ND / ND | 4 of 9 (3.57)
EGDSLRYYYAN | GKNNRPS | GSRHSSGFQCF | 2.32 / 1.96 / 2.11 | 4 of 9 (3.49)
EGDSLRYYYAN | GKNARPP | SSRDSSGFQVS | 3.83 / 3.05 / ND | 6 of 9 (3.66)

Parent in this assay: reference entry 2.31, copy in this library 2.25.
Nonspecific signal, from three strains lacking the peptide, appeared in 28% of pairings of library AAYL52, centred on 3.91 (5% of these signals below 2.90); values are not corrected for it. The control count says in how many pairings with the empty strains this scFv gave a signal, with their mean in brackets.

Data: MIT Lincoln Laboratory AlphaSeq set, Engelhart et al. 2022, doi:10.1038/s41597-022-01779-4, as distributed in FLAb.